Reference: paper PMC6207684, “Structural reorganization of SHP2 by oncogenic mutations and implications for oncoprotein resistance to allosteric inhibition” (Nature Communications, 2018)

Target: T1, SHP2^E76K (Homo sapiens, UniProt Q06124, E76K)
T1 construct: made in house
Assay: SHP099 inhibition of DiFMUP dephosphorylation by purified SHP2
Type: biochemical
Details: SHP2^E76K versus SHP2

CC1(N)CCN(c2cnc(-c3cccc(Cl)c3Cl)c(N)n2)CC1 [SHP099]
Reduction of inhibitory potency of SHP099 for SHP2 by the E76K mutation: more than 100 fold
